IC50 data for two compounds are collected here from patent US20210261539A1, “COMPOUND HAVING BET INHIBITORY ACTIVITY AND PREPARATION METHOD AND USE THEREFOR” (Shanghai Haihe Pharmaceutical Co., Ltd., priority 2018, published 2021).

In general, IC50 refers to the midpoint of a concentration-inhibition curve.

This assay concerns the target BRD4 BD1 (Homo sapiens, UniProt O60885). The experiment in a line: HTRF in vitro enzyme activity assay, inhibition of BRD4 BD1 binding to acetylated H4 peptide. The note with it: read-out: BRD4 IC50; IC50 values of the compounds against BRD4 BD1 binding; class symbols A/B/C. How it is done: Effect Examples: In Vitro Enzyme Activity Assay
Half inhibitory activity (IC50) of the compounds of the invention against the bromodomain protein BRD4 BD1 was determined in the present Examples.
The compounds of the invention were tested for inhibitory activity against BRD4 BD1 with Homogeneous Time-Resolved Fluorescence (HTRF).
2. Reagents, Consumable Materials and Instruments:
Protein BRD4 BD1 used in the assay was purchased from Active Motif (cat. 31380); streptavidin XL-665 (#610SAXLA) and EPIgeneous Binding Domain Kit A (#62BDAPEG) were both purchased from Cisbio Bioassays; [Lys(5,8,12,16)Ac] H4(1-21)-biotin (#64989), [Lys(5,8,12,16)Ac]H4(1-25) were available from Anaspec; OTX015 and ABBV-075 were purchased from Selleckchem Co. The 384-well ProxiPlate (#6008280) was purchased from Perkinelmer Co. The Laboratory microplate reader (Envision 2104) was available from PerkinElmer Co. The water used in the assay was Millipore-Q pure water.
3. Formulation of the Compound […]
6) 10 μL of detection mixture (2×) was added to each well, incubated at RT for 3 h. The mp value was read by microplate reader Envision with the following parameters: […]
(In general: Time-resolved FRET reads energy transfer from a long-lived donor to a nearby acceptor.)

SMILES strings stand for the structures. A value given as a limit tells only on which side of the number the result lay.

Consider `CCN1C(=O)C(C)N(C2CC2)c2nc(N3C(=O)c4ccccc4C3c3ccc(Cl)cc3)ccc21` (single isomer, unassigned), for which the 50% inhibitory concentration (IC50) is less than 10 nM.
In the case of `C[C@H]1Oc2nc(N3C(=O)c4ccccc4C3c3ccc(F)cc3)ncc2N(C)C1=O` (some centres unmarked), the IC50 was less than 10 nM.
